{"sequences": {"note": "The chains behind the UniProt entries cited, without tags or fusion partners.", "UniProt P25099, whole entry": "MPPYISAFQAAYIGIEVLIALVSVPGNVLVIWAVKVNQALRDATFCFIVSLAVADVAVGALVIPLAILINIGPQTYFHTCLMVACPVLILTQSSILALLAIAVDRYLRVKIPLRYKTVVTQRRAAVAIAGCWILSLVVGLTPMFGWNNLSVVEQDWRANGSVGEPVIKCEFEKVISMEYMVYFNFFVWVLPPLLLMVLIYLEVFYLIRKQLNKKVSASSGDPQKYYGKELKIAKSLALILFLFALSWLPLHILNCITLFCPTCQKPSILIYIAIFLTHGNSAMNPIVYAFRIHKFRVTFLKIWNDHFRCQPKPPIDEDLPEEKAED"}, "source": "patent US5453426A", "about": "“Sulfur-containing xanthine derivatives as adenosine antagonists” (priority 1994, dated 1995)", "biological_target": "T1, A1 adenosine receptors (Rattus norvegicus, UniProt P25099)", "T1 construct": "A1 adenosine receptors in rat cerebral cortical membranes; from tissue; host or cells: rat cerebral cortex membranes", "experiment": "Inhibition of binding of [3H]N6-phenylisopropyladenosine to A1 adenosine receptors in rat cerebral cortical membranes", "details": "ratio of A2 (rat striatum) to A1 (rat cortex) Ki", "data": [{"smiles": "CCCn1c(=O)c2[nH]c(-c3ccc(OCC(=O)N(C)CCN(C)C)cc3)nc2n(CCC)c1=S", "note": "[Compound 37, (8-[2-Dimethylaminoethyl[N-methylamino[carbonyl[methyl[oxyphenyl]]]]]-2-thio-1,3-dipropylxanthine)]", "values": [{"measurement": "Ki (A2)/Ki (A1)", "result": 9.5}]}]}
